Columns and labels:
[1] = target: T1, Receptor-type tyrosine-protein phosphatase O (Homo sapiens, UniProt Q16827); assay: Inhibition of GLEEP (unknown origin)
T1 sequence (Q16827 whole entry): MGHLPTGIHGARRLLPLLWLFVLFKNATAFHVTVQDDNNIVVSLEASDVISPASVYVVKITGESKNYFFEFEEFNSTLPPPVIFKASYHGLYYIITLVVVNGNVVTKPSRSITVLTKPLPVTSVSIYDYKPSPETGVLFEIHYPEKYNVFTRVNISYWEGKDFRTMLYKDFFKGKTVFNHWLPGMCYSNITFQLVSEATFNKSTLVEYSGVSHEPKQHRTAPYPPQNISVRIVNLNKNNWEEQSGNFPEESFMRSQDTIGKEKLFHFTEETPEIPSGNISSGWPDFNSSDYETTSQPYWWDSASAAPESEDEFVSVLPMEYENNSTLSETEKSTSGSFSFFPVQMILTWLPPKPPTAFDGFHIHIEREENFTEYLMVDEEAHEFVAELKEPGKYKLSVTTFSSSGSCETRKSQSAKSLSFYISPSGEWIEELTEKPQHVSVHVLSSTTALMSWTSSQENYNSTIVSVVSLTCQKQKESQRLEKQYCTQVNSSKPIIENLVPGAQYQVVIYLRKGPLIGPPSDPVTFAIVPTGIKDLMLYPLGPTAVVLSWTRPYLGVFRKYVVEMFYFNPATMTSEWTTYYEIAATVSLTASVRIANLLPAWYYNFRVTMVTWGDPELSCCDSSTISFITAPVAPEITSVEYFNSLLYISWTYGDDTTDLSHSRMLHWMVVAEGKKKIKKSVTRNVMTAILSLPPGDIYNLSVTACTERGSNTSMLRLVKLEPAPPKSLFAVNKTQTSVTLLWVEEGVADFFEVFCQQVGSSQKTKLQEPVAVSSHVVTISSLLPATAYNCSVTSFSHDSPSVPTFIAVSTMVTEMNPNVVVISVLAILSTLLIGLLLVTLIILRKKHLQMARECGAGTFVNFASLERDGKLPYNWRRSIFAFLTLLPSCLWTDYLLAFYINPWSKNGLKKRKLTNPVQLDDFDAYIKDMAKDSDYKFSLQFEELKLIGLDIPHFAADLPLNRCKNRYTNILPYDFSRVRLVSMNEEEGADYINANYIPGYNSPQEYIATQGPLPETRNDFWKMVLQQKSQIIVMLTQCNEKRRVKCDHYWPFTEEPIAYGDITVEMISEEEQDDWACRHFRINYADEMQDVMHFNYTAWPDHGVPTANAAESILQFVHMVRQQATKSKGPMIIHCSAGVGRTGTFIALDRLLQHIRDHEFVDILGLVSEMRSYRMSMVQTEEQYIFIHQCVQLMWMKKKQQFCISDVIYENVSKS

Protein sequences, listed by entry. Tags and fused reporters are not part of them. Lines headed by an entry give the natural chain unless they say otherwise; changes in a name come on top.
UniProt Q9Y2R2, whole entry: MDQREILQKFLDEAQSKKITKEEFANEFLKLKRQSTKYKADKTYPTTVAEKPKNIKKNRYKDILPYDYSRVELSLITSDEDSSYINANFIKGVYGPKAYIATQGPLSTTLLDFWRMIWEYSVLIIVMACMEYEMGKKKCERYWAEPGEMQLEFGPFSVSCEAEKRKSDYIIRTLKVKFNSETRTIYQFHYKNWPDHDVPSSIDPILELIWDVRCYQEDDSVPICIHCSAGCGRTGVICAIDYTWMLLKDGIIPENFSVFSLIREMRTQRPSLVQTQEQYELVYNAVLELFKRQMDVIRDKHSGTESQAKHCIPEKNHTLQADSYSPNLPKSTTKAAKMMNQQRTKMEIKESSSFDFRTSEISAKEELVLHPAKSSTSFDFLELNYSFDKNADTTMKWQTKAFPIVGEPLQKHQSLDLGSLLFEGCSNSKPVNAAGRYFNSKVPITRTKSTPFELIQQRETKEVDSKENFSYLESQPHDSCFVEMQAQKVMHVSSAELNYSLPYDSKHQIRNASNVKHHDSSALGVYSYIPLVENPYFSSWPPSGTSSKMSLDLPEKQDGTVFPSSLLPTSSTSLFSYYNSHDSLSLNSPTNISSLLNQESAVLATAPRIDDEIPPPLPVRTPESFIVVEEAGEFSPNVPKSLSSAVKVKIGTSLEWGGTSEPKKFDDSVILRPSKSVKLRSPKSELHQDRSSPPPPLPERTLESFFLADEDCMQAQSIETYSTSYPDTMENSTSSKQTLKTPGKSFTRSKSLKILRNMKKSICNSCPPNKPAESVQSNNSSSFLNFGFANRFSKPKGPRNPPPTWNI
UniProt P51452: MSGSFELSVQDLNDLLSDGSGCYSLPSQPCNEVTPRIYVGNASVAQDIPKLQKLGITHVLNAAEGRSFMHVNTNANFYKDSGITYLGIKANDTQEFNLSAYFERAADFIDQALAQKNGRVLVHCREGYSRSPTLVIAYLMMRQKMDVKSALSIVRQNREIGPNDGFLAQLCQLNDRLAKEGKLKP

[2] = target: Tyrosine-protein phosphatase non-receptor type 22 (Homo sapiens, UniProt Q9Y2R2); assay: Inhibition of LYP (unknown origin)
[3] = target: T2, Tyrosine-protein phosphatase non-receptor type 1 (Homo sapiens, UniProt P18031); assay: Inhibition of PTP1B (unknown origin)
T2 sequence (P18031 whole entry): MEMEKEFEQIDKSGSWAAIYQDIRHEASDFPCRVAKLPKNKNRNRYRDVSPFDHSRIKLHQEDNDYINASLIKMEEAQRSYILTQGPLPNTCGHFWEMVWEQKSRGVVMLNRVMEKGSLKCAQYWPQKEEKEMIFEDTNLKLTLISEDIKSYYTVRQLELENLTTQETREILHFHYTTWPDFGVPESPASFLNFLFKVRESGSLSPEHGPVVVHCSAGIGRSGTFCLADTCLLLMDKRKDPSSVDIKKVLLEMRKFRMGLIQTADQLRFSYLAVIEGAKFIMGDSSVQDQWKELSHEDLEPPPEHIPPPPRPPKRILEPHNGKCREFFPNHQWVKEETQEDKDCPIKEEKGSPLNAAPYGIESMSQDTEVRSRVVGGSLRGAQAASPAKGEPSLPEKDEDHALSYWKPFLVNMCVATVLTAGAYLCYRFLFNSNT

[4] = target: Dual specificity protein phosphatase 3 (Homo sapiens, UniProt P51452); assay: Inhibition of VHR (unknown origin)
[5] = target: T3, Tyrosine-protein phosphatase non-receptor type 7 (Homo sapiens, UniProt P35236); assay: Inhibition of HEPTP (unknown origin)
T3 sequence (P35236 whole entry): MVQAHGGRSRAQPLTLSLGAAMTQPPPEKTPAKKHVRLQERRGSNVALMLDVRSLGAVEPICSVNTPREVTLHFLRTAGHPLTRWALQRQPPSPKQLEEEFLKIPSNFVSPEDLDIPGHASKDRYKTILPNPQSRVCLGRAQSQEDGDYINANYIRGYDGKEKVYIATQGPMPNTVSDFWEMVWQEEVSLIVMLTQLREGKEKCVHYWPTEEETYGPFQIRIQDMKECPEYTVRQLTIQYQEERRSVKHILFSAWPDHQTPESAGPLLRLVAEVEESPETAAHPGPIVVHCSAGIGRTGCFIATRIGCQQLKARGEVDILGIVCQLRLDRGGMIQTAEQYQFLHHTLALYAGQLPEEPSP

| Structure (SMILES) | IC50 [1] [µM] | IC50 [2] [µM] | IC50 [3] [µM] | IC50 [4] [µM] | IC50 [5] [µM] |
| --- | --- | --- | --- | --- | --- |
| O=C(O)c1cccc2c1NC(c1ccc(F)cc1)C1CC(Sc3ccccc3[N+](=O)[O-])C(Cl)C21 (centres undefined) | 41.9 | 14.5 | 67.6 | 26 | 20.1 |
| O=C(O)c1cccc2c1NC(c1cccc(Br)c1)C1CC(Sc3ccccc3[N+](=O)[O-])C(Cl)C21 (centres undefined) | 18.3 | – | 13.3 | 56.9 | 48.2 |

— ChEMBL document CHEMBL4765268 (Eur J Med Chem, 2020)
